Tested on: fibroblast cells (3T6) expressing full-length tau (T40) and the 12 kD PHF-core tau fragment
Test: Cell-based assay for establishing EC50 (inhibition of generation of the 12 kD tau fragment)
Settings: concentration giving 50% inhibition of generation of the 12 kD fragment, 3T6 cells, mean ± SE, number of replications in parentheses

Row | SMILES | EC50 | EC50 (Fibroblast)
1 | CCN(CC)c1ccc2cc3ccc(N(CC)CC)cc3[o+]c2c1.[Cl][Fe]([Cl])([Cl])[Cl] [G, 3,6-bis-diethylamino xanthylium iron tetrachloride] | 79 ± 24 nM | –
2 | CCN(CC)c1ccc2cc3ccc(N(CC)CC)cc3[o+]c2c1.[Br-] [Compound F, 3,6-Bis-diethylamino xanthylium bromide] | 42 ± 30 nM | –
3 | CCN(CC)c1ccc2cc3ccc(=[N+](CC)CC)cc-3oc2c1 [I•HNO3, 3,6-Bis-diethylamino xanthylium nitrate.HNO3] | – | 32 ± 7 nM

Reference: patent US8658665B2, “3,6-disubstituted xanthylium salts and use thereof in treatment of tauopathies” (WisTa Laboratories Ltd., priority 2008, dated 2014)
